Bioassay records from PubChem.
In the library only some 0.46% were active in any assay of this set; here they are far more common.
GIV-Gai inh: inhibitors of GIV GBA-motif binding to rat Galpha-i3; P08753; Galpha-i3/FITC-GIV peptide fluorescence polarization, 90 min; hits give low values; scaled: aluminum fluoride 0%, vehicle 100%; percent of control (FP), % (test concentration not listed); actives 0.42% (n = 210,000); AID 1224905;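 active = replicate mean at 85% of control or lower, very high polarization wells dropped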;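 also: wells of about 15 µL received 100 nL stock; the first replicate is given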
HCMV NEC inh: inhibitors of HCMV UL50-UL53 interaction, biochemical, HTRF; HCMV UL50-UL53 nuclear egress complex (human cytomegalovirus); normalized percent inhibition; inhibition, % (test concentration not listed); 190,000 compounds, 0.15% hits; AID 1918969, 2023; in the data active means inhibition above about 27%, passing the limit was not always enough
* marks the source's active call; other numbers are inactive results; / = no result given.

Sample of the layout:
SMILES | GIV-Gai inh | HCMV NEC inh
CN1CCN(c2ccc(NS(=O)(=O)c3cccc4nonc34)cc2)CC1 | 101.2 | -93.8
CS(=O)(=O)N1CCn2c(nc3ccccc32)C1 | 97.6 | 2.7
O=S(=O)(c1ccc(NCCc2ccccn2)nc1)N1CCCC1 | / | 4.4
COC(=O)c1ccc2c(=O)n(CCc3ccc(S(N)(=O)=O)cc3)c(SCc3cc(F)cc4c3OCOC4)nc2c1 | 110.4 | /
NS(=O)(=O)c1ccc2c3c(cccc13)C(=O)N2 | / | -69.6
Nc1ccc2c3c(cccc13)C(=O)C=C2 | -30.3* | 56.8*

All compounds of this part, from the first entry:
SMILES | GIV-Gai inh | HCMV NEC inh
CN1CCN(c2ccc(NS(=O)(=O)c3cccc4nonc34)cc2)CC1 | 101.2 | -93.8
CS(=O)(=O)N1CCn2c(nc3ccccc32)C1 | 97.6 | 2.7
O=S(=O)(c1ccc(NCCc2ccccn2)nc1)N1CCCC1 | / | 4.4
COC(=O)c1ccc2c(=O)n(CCc3ccc(S(N)(=O)=O)cc3)c(SCc3cc(F)cc4c3OCOC4)nc2c1 | 110.4 | /
NS(=O)(=O)c1ccc2c3c(cccc13)C(=O)N2 | / | -69.6
Nc1ccc2c3c(cccc13)C(=O)C=C2 | -30.3* | 56.8*
CN(C)/C=C1\SC(=S)N(c2ccc(Br)cc2)C1=O | -65.5* | -104.3
Cc1c(N2C(=O)/C(=C/c3ccc(Br)cc3)SC2=S)c(=O)n(-c2ccccc2)n1C | 103.7 | /
O=C1CN(c2ccccc2)C(=Nc2ccccc2)S1 | 97.4 | 7.3
c1ccc(N=c2[n-][n+](-c3ccccc3)cn2-c2ccccc2)cc1 | / | 55.4*
Cc1c(N=C/C=C2\N(C)c3ccccc3C2(C)C)c(=O)n(-c2ccccc2)n1C | / | -40.6
CN1/C(=C\C=C2\C(=O)Oc3ccccc3C2=O)C(C)(C)c2ccccc21 | -32.1* | /
Cc1ccccc1NC(=O)CCn1c(C(F)(F)F)nc2cc(S(=O)(=O)N(C)C)ccc21 | 106.8 | -8.3
O=S(=O)(c1cccc2nsnc12)N1CC(OCc2ccc(Cl)cc2)C1 | 99.2 | -104.0
O=C1NC2c3ccccc3C(=O)N2c2ccccc21 (stereo unspecified) | 99.0 | -29.9
CN1c2ccccc2Oc2nnc(N3CCN(Cc4ccccc4)CC3)cc21 | 103.7 | -40.5
CN1c2ccccc2Oc2nnc(Cl)cc21 | 103.6 | 104.8*
Cc1nn(C)c(C)c1-c1ccnc(NCC(C)Oc2cccnc2)n1 (stereo unspecified) | / | -7.6
O=C1CCNc2cc3ccccc3cc21 | 118.7 | -73.4
O=C1CCNc2ccc(-c3ccccc3)cc21 | 14.2* | -58.4
Cc1cc(=O)[nH]c(SCC(=O)NCCCc2ccccc2)n1 | / | -13.8
CSc1nc(/C=N/O)ccc1C#N | 96.5 | -13.7
CC(C)Nc1nc2c(S(=O)(=O)c3ccccc3)nnn2c2ccsc12 | 100.5 | 37.0*
CCc1ccc(S(=O)(=O)c2nnn3c2nc(NC(C)C)c2sccc23)cc1 | 102.2 | /
CCn1ccc2cc(S(=O)(=O)N3CCCC(C(=O)N4CCN(c5ncccn5)CC4)C3)ccc21 (stereo unspecified) | 105.9 | -19.7
Cc1nn(-c2ccccc2)c2c1CC(C#N)(C(=O)c1ccc(Cl)cc1)C1CCCN21 (stereo unspecified) | / | -28.2
Cc1n[nH]c(C)c1N1C(=O)c2cccc3c(N4CCCCC4)ccc(c23)C1=O | -6.8* | -115.7
O=C1c2cccc3c(N4CCOCC4)ccc(c23)C(=O)N1c1ccccc1 | 94.0 | -90.6
O[N+]1=CC=CCC1=S.On1ccccc1=S.[Zn] | / | 93.1*
Cc1ccc2nc(CCCC(=O)OC(C)C)[nH]c2c1 | 97.5 | -20.5
CC1CCN(CCNS(=O)(=O)c2csc(C(N)=O)c2)CC1 | 105.0 | -22.8
O=C1NC(=S)NC(=O)C1=CN1CCCc2ccccc21 | / | -26.0
COc1cc(OC)cc(-c2nc3ccccc3c(=O)n2OC(=O)c2cc(Cl)ccc2OC)c1 | 103.0 | 11.4
COc1ccccc1C(=O)On1c(C)nc2ccccc2c1=O | 97.9 | 31.0*
CCNCc1ccc(-c2cccc(Cl)c2)o1 | 106.0 | /
CCOC(=O)/C(C#N)=C/c1ccc(N2CCCCC2)o1 | -73.7* | -148.1
N#C/C(=C\c1ccc(N2CCCCC2)o1)C(N)=O | 196.5 | -216.8
CSc1nnc2c(n1)OC(c1ccc([N+](=O)[O-])cc1)Nc1ccccc1-2 (stereo unspecified) | 113.6 | /
CSc1nnc2c(n1)OC1(Nc3ccccc3-2)C(=O)Nc2ccc([N+](=O)[O-])cc21 (stereo unspecified) | 86.2 | 33.7*
COC(=O)C1=C(C)Nc2nnnn2C1c1ccc(N(C)C)cc1 (stereo unspecified) | 99.7 | -14.8
COc1cc2ccc3c(CCN(C)C)cc(OC)c(OC)c3c2cc1OC | 106.3 | /
COc1cc2cc3c4c(cc(OC)c(OC)c4c2cc1OC)CCN3C | / | 67.4*
C=CCNC(=O)C1CCCN(C(=O)c2cccc(NS(=O)(=O)c3ccc(C(C)C)cc3)c2)C1 (stereo unspecified) | -65.0* | /
CCCc1ccc(S(=O)(=O)Nc2cccc(C(=O)N3CCCC(C(=O)NC4CCCC4)C3)c2)cc1 (stereo unspecified) | 102.5 | /
CCOC(=O)C1=NN(C(=O)c2cccc(Cl)c2)C(O)(c2ccc(Cl)cc2)C1 (stereo unspecified) | 117.4 | /
CCOC(=O)c1c(C)oc(NC(=O)COC(=O)c2ccccc2Sc2ccccc2C#N)c1C#N | / | -29.8
CCCn1c2ccccc2c2cnn(CC(=O)N3CCCc4ccccc43)c(=O)c21 | 108.8 | -4.0
O=C(NC1(O)C(=O)c2ccccc2C1=O)c1cnn(-c2ccccc2)c1C(F)(F)F | 87.4 | 49.4
CSc1ncccc1C(=O)Nc1ccccc1C | 103.9 | /
Cc1nc(C(=O)NC2(O)C(=O)c3ccccc3C2=O)cs1 | 94.9 | 59.9*

New compounds follow.
SMILES | GIV-Gai inh | HCMV NEC inh
CSc1ncccc1C(=O)NC1(O)C(=O)c2ccccc2C1=O | 93.1 | 56.1*
C/C(N)=C(/C#N)C(=O)CSc1cc(C)c(C#N)c2nc3ccccc3n12 | / | -32.3
COC(=O)C1=C(C(=O)OC)SC(=C2C(=S)C(C)(C)N(C(=O)CCC3CCCCC3)c3cc(C)c(C)cc32)S1 | 103.7 | /
NC(=O)c1c(NC(=O)CN2C(=O)S/C(=C\c3ccccc3Cl)C2=O)sc2c1CCCC2 | 105.3 | 19.9
COc1ccc(Br)cc1/C=C1/N=C(c2ccc(OC)c(OC)c2)OC1=O | -11.5* | /
COc1cc(OC)c(OC)cc1/C=C1\N=C(c2cccc(Br)c2)OC1=O | 171.7 | /
COc1ccc(Br)cc1/C=C1\N=C(c2cc(OC)c(OC)c(OC)c2)OC1=O | 107.9 | /
COc1cc(OC)c(OC)cc1/C=C1\N=C(c2cncc(Br)c2)OC1=O | -8.4* | /
CCc1cccc(CC)c1NC(=S)Nc1ccc(C)cc1 | 103.9 | -15.5
N#CC(C#N)=C(C#N)c1ccco1 | 123.6 | 13.4
O=C(c1cnc2ccccc2c1Nc1ccc(Br)cc1)N1CCOCC1 | 101.6 | -10.2
CC(C)c1ccc(S(=O)(=O)Nc2cc(C(=O)O)cnc2N(C)C)cc1 | 75.4* | -23.8
CC(C)Cc1ccc(S(=O)(=O)Nc2cc(C(=O)O)cnc2N(C)C)cc1 | 101.1 | -19.8
CC1=CS/C(=C(/C#N)C(N)=O)N1c1ccccc1 | 104.4 | -10.7
N#C/C(C(=O)c1ccccc1)=C1/SC=C(N)N1c1ccccc1 | -51.0* | -26.0
CNC(=O)c1ccc(NC(=O)C2=CSCCO2)cc1 | 104.4 | 3.7
COc1ccc(C)cc1NS(=O)(=O)c1cc(-c2cc(C(F)(F)F)on2)sc1C | 102.8 | /
COc1ccc(CNC(=O)C2=Cc3sc(C)c(C)c3CS2)cc1 | 98.3 | /
CCNc1nc2ccccn2c(=O)c1/C=C1\SC(=S)N(Cc2ccco2)C1=O | -75.4* | -11.4
CCN1C(=O)/C(=C/c2c(NC(C)C)nc3ccccn3c2=O)SC1=S | 293.0 | -13.2
O=C1/C(=C/c2c(NCc3ccco3)nc3ccccn3c2=O)SC(=S)N1C1CCCCC1 | 108.6 | /
C=CCN1C(=O)/C(=C/c2c(NCc3ccco3)nc3ccccn3c2=O)SC1=S | -83.2* | -14.0
C=CCN1C(=O)/C(=C/c2c(NCC)nc3ccccn3c2=O)SC1=S | -33.3* | /

An excerpt from above in order of molar mass, lowest first:
SMILES | GIV-Gai inh | HCMV NEC inh
CC(C)c1ccc(S(=O)(=O)Nc2cc(C(=O)O)cnc2N(C)C)cc1 | 75.4* | -23.8
C=CCN1C(=O)/C(=C/c2c(NCC)nc3ccccn3c2=O)SC1=S | -33.3* | /
O=C(c1cnc2ccccc2c1Nc1ccc(Br)cc1)N1CCOCC1 | 101.6 | -10.2
